The record followed here is publication PMC12591170, “Glabridin‐Gold(I) Complex as a Novel Immunomodulatory Agent Targeting TrxR and MAPK Pathways for Synergistic Enhancement of Antitumor Immunity” (Advanced Science, 2025).

The structures appear in SMILES notation.

The nature of this series: In vivo tolerability (body weight, survival, organ H&E). The settings on record: 6d and OXA 5 mg kg^−1, GLA 10 mg kg^−1, i.p. every two days; OXA after nine days. The procedure:
All mice were 6–8 weeks old males and procured from Hangzhou Medical College, located in Hangzhou, China. […] 2 × 10^6 Hepa1‐6 cells in 100 µL DMEM were subcutaneously seeded in underarms of C57BL/6 mice. […] Meanwhile, the mice weights and tumor volume were recorded, and the calculation formula of tumor volume was Volume = Width^2 × Length/2. After 13 days, all mice were sacrificed for collection of tumors, hearts, livers, spleens, lungs and kidneys. Collagenase IV (1 mg mL^−1) and DNase I (1 µg mL^−1) were applied to digest a part of the tumor tissue into cell suspension, and lysis buffer was used to remove red blood cells. The prepared cells above were stained with antibodies (anti‐CD3e‐FITC, and anti‐CD8a‐PE; anti‐CD11c‐APC, anti‐CD80‐PE, and anti‐CD86‐FITC; anti‐CD45‐Percp, anti‐CD11b‐APC, and anti‐Ly‐6G/Ly‐6C(Gr‐1)‐FITC; anti‐CD11b‐APC, anti‐CD206‐PE, and CD86‐FITC). CD3^+CD8^+ T cells, CD80^+CD86^+ DCs, CD11b^+Gr‐1^+ MDSCs, CD206^−CD86^+ M1‐type macrophages and CD206^+CD86^− M2‐type macrophages were analyzed by flow cytometry. Then, another part of tumor tissues were fixed with 4% paraformaldehyde, embedded in paraffin, cut into slices and stained with antibodies for immunofluorescence and immunohistochemistry analysis. H&E stain assays were applied for all tissue samples.

In the case of `O=C1[O][Pt]2([NH][C@@H]3CCCC[C@H]3[NH]2)[O]C1=O` [OXA, oxaliplatin], the “effect on mice body weight” value is “decrease in body weight”.
